Data reported in article PMC11393638 (Regulatory toxicology and pharmacology : RTP, 2023).

Legend:
[1] = test system: CYP2C19-expressing TK6 cells; assay: TK and HPRT gene mutation assays in CYP2C19-expressing TK6 cells; assay type: cell-based, human; details: for Relative survival (%): 4-h treatment, CYP2C19-expressing TK6 cells, no S9
2D HepaRG cells = details: 24 h
3D HepaRG spheroids = details: 24 h
[2] = test system: TK6 cells transduced with CYP2C19; details: 24 h
[3] = test system: CYP1A1-expressing TK6 cells; details: 10 μM; 24 h without exogenous metabolism
[4] = test system: CYP2C9-expressing TK6 cells; details: 10 μM; 24 h without exogenous metabolism
[5] = test system: CYP2C19-expressing TK6 cells; details: 0.5 μM; 24-h treatment
TK6 cells [6] = assay: In vitro micronucleus assay in TK6 cells
TK6 cells [7] = assay: TK and HPRT gene mutation assays in TK6 cells with hamster liver S9; details: for Relative survival (%): 4-h treatment, TK6 cells with 1% hamster liver S9
[8] = 10% hamster liver S9, preincubation 30 min
[9] = 10% hamster liver S9, preincubation 60 min
[10] = 10% rat liver S9, preincubation 30 min
[11] = 30% hamster liver S9, preincubation 30 min
[12] = 30% hamster liver S9, preincubation 60 min

CC(C)N(CC(O)COc1cccc2ccccc12)N=O (stereo not shown) [NNP, N-nitroso propranolol]
Relative survival (%) ([1]; 0.0625 μM): 100.1% | Relative survival (%) ([1]; 0.125 μM): 76.3% | Relative survival (%) ([1]; 0.25 μM): 75.2% | Fold MF increase over control, HPRT gene ([1]; 0.5 μM): 11.5 fold | Fold MF increase over control, TK gene ([1]; 0.5 μM): 4.3 fold | Relative survival (%) ([1]; 0.5 μM): 41.8% | Relative survival (RS) ([1]; 0.5 μM, second independent (repeat) experiment): 39.4% | U/L (ratio of the BMDU to BMDL) (TA98; [8]): 1.8 | U/L (ratio of the BMDU to BMDL) (TA98; [9]): 2.1 | U/L (ratio of the BMDU to BMDL) (TA98; [10]): 1.7 | U/L (ratio of the BMDU to BMDL) (TA98; 10% rat liver S9, preincubation 60 min): 1.6 | U/L (ratio of the BMDU to BMDL) (TA98; [11]): 1.7 | U/L (ratio of the BMDU to BMDL) (TA98; [12]): 1.7 | U/L (ratio of the BMDU to BMDL) (TA98; 30% rat liver S9, preincubation 30 min): 1.7 | U/L (ratio of the BMDU to BMDL) (TA98; 30% rat liver S9, preincubation 60 min): 1.6 | U/L (ratio of the BMDU to BMDL) (TA98; without S9, preincubation 30 min): 2.5 | U/L (ratio of the BMDU to BMDL) (TA98; without S9, preincubation 60 min): 1.7 | U/L (ratio of the BMDU to BMDL) (TA100; [8]): 3.6 | U/L (ratio of the BMDU to BMDL) (TA100; [9]): 2.4 | U/L (ratio of the BMDU to BMDL) (TA100; [11]): 2.7 | U/L (ratio of the BMDU to BMDL) (TA100; [12]): 2.5 | U/L (ratio of the BMDU to BMDL) (TA1535; [8]): 3.8 | U/L (ratio of the BMDU to BMDL) (TA1535; [9]): 3.1 | U/L (ratio of the BMDU to BMDL) (TA1535; [10]): 3.0 | U/L (ratio of the BMDU to BMDL) (TA1535; [11]): 3.4 | U/L (ratio of the BMDU to BMDL) (TA1535; [12]): 2.8 | Relative viability (ATP assay) (2D HepaRG cells; 250 μM, 2D cultured cells): 82% | Fold increase in % tail DNA compared to control (2D HepaRG cells; highest concentration, 2D cultures): 9 fold | Relative viability (ATP assay) (3D HepaRG spheroids; 250 μM, 3D spheroids): 56% | Fold increase in % tail DNA compared to control (3D HepaRG spheroids; highest concentration, 3D cultures): 13 fold | Maximum fold increase in %MN ([2]; 0.5 μM (highest concentration tested)): 5.8 fold | Decrease in relative nuclear count (cytotoxicity) ([2]; 0.5 μM): 42% | Fold increase in %MN [3]: 3.6 fold | Fold increase in %MN [4]: 1.6 fold | Fold increase in γH2A.X fluorescence signal over the controls [5]: more than 3 fold | Fold increase in %MN over controls (TK6 cells [6]; 2.5 μM, 24-h continuous incubation with 0.4% hamster liver S9): 4.4 fold | Fold increase in %MN over controls (TK6 cells [6]; 100 μM, 4-h treatment with 2% hamster liver S9): 4.1 fold | Potency in inducing MN relative to NDEA (TK6 cells [6]; 4-h and 24-h treatments in the presence of S9, NDEA at 100 μM): more potent than NDEA | Relative survival (%) (TK6 cells [7]; 50 μM): 115.3% | Relative survival (%) (TK6 cells [7]; 100 μM): 108.7% | Relative survival (%) (TK6 cells [7]; 200 μM): 86.0% | Relative survival (%) (TK6 cells [7]; 300 μM): 65.9% | Mutagenicity on a molar basis relative to NDEA (TK6 cells [7]; TK6 cells, 1% hamster liver S9, NDEA at 100 μM): lower than NDEA

Read-outs that look alike come from different tables or passages of the source.
